Reference: PMC10969092, “Characterization of Lysophospholipase D Activity in Mammalian Cell Membranes” (Cells, 2024)

Assays:
PLA2 = experiment: In vitro membrane PLA2 assay (B-PC substrate, B-lyso-PC / B-lyso-PBt products); settings: PC12K membranes; 1 h
lyso-PLD = experiment: In vitro membrane lyso-PLD assay (B-lyso-PC substrate, B-LPA product); assay type: biochemical, rat; settings: PC12K membranes; 1 h

Methyl arachidonyl fluorophosphonate
Effect on PLA2 activity (B-lyso-PC from B-PC) (PLA2): suppressed PLA2 activity | Effect on lyso-PLD (B-lyso-PC as substrate) (lyso-PLD): not inhibited
